Legend:
Format in all cases: in vitro ADME
[1] = Stability in simulated intestinal fluid (SIF); details: 100 fold dilution of standard SIF concentration, 37° C., 20 μM
Procedure: Studies were carried out in simulated intestinal fluid (SIF) and simulated gastric fluid (SGF) to evaluate gastric stability of the peptide inhibitors of the present invention. In addition, studies were carried out to assess redox stability of the peptide inhibitors of the present invention.
SIF was prepared by adding 6.8 g of monobasic potassium phosphate and 10.0 g of pancreatin to 1.0 L of water. After dissolution, the pH was adjusted to 6.8 using NaOH. DMSO stocks (2 mM) were first prepared for the test compounds. Aliquots of the DMSO solutions were dosed into 6 individual tubes, each containing 0.5 mL of SIF, which is pre-warmed to 37° C. The final test compound concentration was 20 μM. The vials were kept in a benchtop Thermomixer® for the duration of the experiment. At each timepoint (0, 5, 10, 20, 40, 60, or 360 minutes or 24 hours), 1.0 mL of acetonitrile containing 1% formic acid was added to one vial to terminate the reaction. Samples were stored at 4° C. until the end of the experiment. After the final timepoint is sampled, the tubes were mixed and then centrifuged at 3,000 rpm for 10 minutes. Aliquots of the supernatant were removed, diluted 1:1 into distilled water containing internal standard, and analyzed by LCMS/MS. Percent remaining at each timepoint was calculated based on the peak area response ratio of test to compound to internal standard. Time 0 was set to 100%, and all later timepoints were calculated relative to time 0. Half-lives were calculated by fitting to a first-order exponential decay equation using Graphpad.

[2] = Stability in human fecal homogenate; details: 20% human fecal homogenate, 37° C., 20 μM
Procedure: (§1) Studies were carried out in human or cynomlogus monkey fecal homogenate to evaluate gastrointestinal stability of the peptide inhibitors of the present invention.
(§2) Fecal homogenate (20%) was prepared by adding 4 mL of growth medium (1 liter contains 2 g peptone water powder, 2 g yeast extract, 0.1 g NaCl, 0.04 g KH2PO4, 0.01 g CaCl2·6H2O, 0.01 g MgSO4.7H2O, 2 mL Tween 80, 0.5 g bile salts, 0.5 g L-cysteine HCl, 2 g NaHCO3, and 10 μL Vitamin K, pH adjusted to 6.8, and sterilized by filtration through a 0.22 μm filter) to every gram of feces (pooled freshly collected human or cynomolgus monkey feces). The suspension was vortexed to break up large clumps, and homogenized using a bead mill homogenizer. Centrifuged the homogenate at 2800×g for 15 min. The supernatant is taken out and used for incubations. DMSO stocks (10 mM) were first prepared for the test compounds. Incubations were performed in an anaerobic chamber conditioned at 37° C. Aliquots of the DMSO solutions were dosed into 1.0 mL aliquots of 20% fecal homogenate, which are pre-warmed to 37° C. The final test compound concentration was 20 μM. At each timepoint (0, 20 min, 1, 3, 6, or 24 hours), 100 μL aliquot of each incubation mixture is taken out and added to separate tubes containing 300 μL of 50% acetonitrile/50% methanol and an internal standard to terminate the reaction. Samples were taken out of the anaerobic chamber and stored at 4° C. until the end of the experiment. After the final timepoint is sampled, the tubes were mixed and then centrifuged at 3,000 rpm for 10 minutes. Aliquots of the supernatant were removed, diluted 1:1 into distilled water containing 0.1% formic acid, and analyzed by LC/MS/MS. Percent remaining at each timepoint was calculated based on the peak area response ratio of test to compound to internal standard. Time 0 was set to 100%, and all later timepoints were calculated relative to time 0. Half-lives were calculated by fitting to a first-order exponential decay equation using Graphpad or Excel.

[3] = Stability in cynomolgus monkey fecal homogenate; details: 20% cynomolgus monkey fecal homogenate, 37° C., 20 μM
Procedure: as §1, §2

[4] = Stability in rat plasma; details: SD rat plasma, 37° C., 20 μM
Procedure: Example 6: Stability of Peptide Inhibitors in Rat Plasma
Peptides of interest (20 μM) were incubated with pre-warmed rat plasma (SD rat, mixed gender pooled, EDTA, filtered through 0.22 μm, BioreclamationIVT) at 37° C. Aliquots were taken at various time points up to 24 hours (e.g. 0, 0.25, 1, 3, 6 and 24 hr), and immediately quenched with 4 volumes of organic solvent (acetonitrile/methanol (1:1) and 0.1% formic acid, containing 1 μM internal standard). Quenched samples were stored at 4° C. until the end of the experiment and centrifuged at 4,000 rpm for 10 minutes. The supernatant were diluted 1:1 with deionized water and analyzed using LC-MS. Percentage remaining at each time point was calculated based on the peak area ratio (analyte over internal standard) relative to the initial level at time zero. Half-lives were calculated by fitting to a first-order exponential decay equation using GraphPad.

| Substance | SIF t½ [1] | t½: Human Feces anaerobic [2] | t½: Monkey Feces anaerobic [3] | t½: Rat Plasma EDTA [4] |
| --- | --- | --- | --- | --- |
| Ac-[Pen]-N-T-[W(7-Me)]-[Lys(Ac)]-[Pen]-Phe[4-(2-aminoethoxy)]-[W(7-Et)]-[a-MeLys]-[Lys(Ac)]-N-H-[Sarc]-NH2 [Peptide 34] | >24.0 h | >24.0 h | >24.0 h | >24.0 h |
| Ac-[Pen]-N-T-[W(7-Me)]-[Lys(Ac)]-[Pen]-Phe[4-(2-aminoethoxy)]-[W(7-OMe)]-[a-MeLys]-[Lys(Ac)]-N-H-[Sarc]-NH2 [Peptide 40] | >24.0 h | >24.0 h | 19.9 h | >24.0 h |
| Ac-[Abu]-Q-T-[W(7-Me)]-[Cit]-[Cys]-Phe[4-(2-aminoethoxy)]-[2-Nal]-[a-MeLys]-[Lys(Ac)]-N-[3Pal]-[Sarc]-NH2 [Peptide 112] | 10 h | 10.9 h | 17 h | >24.0 h |
| Ac-[(D)Arg]-[Abu]-Q-T-[W(7-Ph)]-[Lys(Ac)]-[Cys]-Phe[4-(2-aminoethoxy)]-[2-Nal]-[a-MeLys]-[Lys(Ac)]-N-dK-[Sarc]-NH2 [Peptide 1] | 22.4 h | >24.0 h | >24.0 h | >24.0 h |
| Ac-[Pen]-N-T-[W(7-Me)]-[Lys(Gly)]-[Pen]-Phe[4-(2-aminoethoxy)]-[2-Nal]-[a-MeLys]-[Lys(Ac)]-N-[(D)Leu]-[Sarc]-NH2 [Peptide 29] | >24.0 h | 5.7 h | 17.5 h | 22.2 h |
| Ac-[Pen]-N-T-[W(7-Me)]-[Lys(Ac)]-[Pen]-Phe[4-(2-aminoethoxy)]-[W(6-Et)]-[a-MeLys]-[Lys(Ac)]-N-H-[Sarc]-NH2 [Peptide 45] | >24.0 h | >24.0 h | 18.4 h | >24.0 h |
| Ac-[Pen]-N-T-[W(7-Me)]-[Lys(Ac)]-[Pen]-Phe[4-(2-aminoethoxy)]-[W(7-Ph)]-[a-MeLys]-[Lys(Ac)]-N-H-[Sarc]-NH2 [Peptide 50] | >24.0 h | >24.0 h | 24.1 h | >24.0 h |
| Ac-[Pen]-N-T-[W(7-Me)]-[Lys(Ac)]-[Pen]-Phe[4-(2-aminoethoxy)]-[W(5-OMe)]-[a-MeLys]-[Lys(Ac)]-N-H-[Sarc]-NH2 [Peptide 42] | >24.0 h | >24.0 h | 15.7 h | >24.0 h |
| Ac-[Pen]-N-T-[W(7-Me)]-[Lys(Ac)]-[Pen]-Phe[4-(2-aminoethoxy)]-[W(4-Me)]-[a-MeLys]-[Lys(Ac)]-N-H-[Sarc]-NH2 [Peptide 35] | >24.0 h | >24.0 h | >24.0 h | >24.0 h |
| Ac-[Pen]-N-T-[W(7-Me)]-[Lys(Ac)]-[Pen]-Phe[4-(2-aminoethoxy)]-[2-Nal]-[THP]-E-N-[ 7-Aza-tryptophan]-[Sarc]-NH2 [Peptide 119] | 19.6 h |  |  | >24.0 h |
| Ac-[Pen]-N-T-[W(7-Me)]-[Lys(Ac)]-[Pen]-Phe[4-(2-aminoethoxy)]-[W(3-MePh)]-[a-MeLys]-[Lys(Ac)]-N-H-[Sarc]-NH2 [Peptide 43] | >24.0 h | 23.9 h | 24 h | >24.0 h |
| Ac-[Pen]-N-T-[W(7-Me)]-[Lys(Gly)]-[Pen]-Phe[4-(2-aminoethoxy)]-[2-Nal]-[THP]-E-N-[(D)Leu]-[Sarc]-NH2 [Peptide 28] | >24.0 h | 5.6 h | 19.2 h | 1 h |
| Ac-[Pen]-N-T-[W(7-Me)]-[Lys(Ac)]-[Pen]-Phe[4-(2-aminoethoxy)]-[W(4-OMe)]-[a-MeLys]-[Lys(Ac)]-N-H-[Sarc]-NH2 [Peptide 37] | >24.0 h | >24.0 h | 23.5 h | >24.0 h |
| Ac-[Pen]-N-T-[W(7-(4-Anthracen-5-yl))]-[Lys(Ac)]-[Pen]-Phe[4-(2-aminoethoxy)]-[2-Nal]-[THP]-E-N-H-[Sarc]-NH2 [Peptide 70] | >24.0 h | >24.0 h | >24.0 h | >24.0 h |
| Ac-[Pen]-N-T-[W(7-Me)]-[Lys(Ac)]-[Pen]-Phe[4-(2-aminoethoxy)]-[2-Nal]-[THP]-[Lys(Ac)]-N-H-[Sarc]-NH2 [Peptide 81] | 11.9 h | 17.5 h | 18.3 h | >24.0 h |
| Ac-[Abu]-Q-T-[W(7-Me)]-Q-[Cys]-Phe[4-(2-aminoethoxy)]-[2-Nal]-[a-MeLys]-[Lys(Ac)]-N-[3Pal]-[Sarc]-NH2 [Peptide 110] | 15 h | 10.6 h | 20.1 h | >24.0 h |
| Ac-[Pen]-N-T-[W(7-Me)]-[Lys(Ac)]-[Pen]-Phe[4-(2-aminoethoxy)]-[W(6-Ph)]-[a-MeLys]-[Lys(Ac)]-N-H-[Sarc]-NH2 [Peptide 44] | >24.0 h | 22.7 h | 23.2 h | >24.0 h |
| Ac-[Pen]-N-T-[W(7-Me)]-[Lys(Ac)]-[Pen]-Phe[4-(2-aminoethoxy)]-[2-Nal]-[a-MeLys]-[Lys(Ac)]-N-[(D)Leu]-[Sarc]-NH2 [Peptide 25] | >24.0 h | >24.0 h | >24.0 h | >24.0 h |
| Ac-[Pen]-N-T-[W(7-Ph)]-Q-[Pen]-Phe[4-(2-aminoethoxy)]-[2-Nal]-[THP]-E-N-[3Pal]-[Sarc]-NH2 [Peptide 127] | >24.0 h |  |  | >24.0 h |
